For 2 compounds, IC50 and Solubility results are on record in PMC7493962, “Structure-based inhibitors targeting the alpha-helical domain of the Spiroplasma melliferum histone-like HU protein” (Scientific Reports, 2020).

Sequences of proteins named here, by UniProt entry; tags and fusion partners are left off. A change or cut given only in a name is not applied to a line headed by its entry.
UniProt P0ACF0: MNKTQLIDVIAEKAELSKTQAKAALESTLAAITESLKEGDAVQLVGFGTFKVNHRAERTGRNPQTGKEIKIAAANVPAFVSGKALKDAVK

Like-named read-outs stand apart in the source and are kept apart here.

Data set [1] concerns the target T1, HUEc (HUα-homodimer from E. coli) (Escherichia coli, UniProt P0ACF0).
T1 construct: made in house

A short description of data set [2]: Solubility (stated in words). Format: physicochemical. The note with it: water.

Turning to “4,5'-[4,4'-(9H-fluorene-9,9-diyl)bis(4,1-phenylene)]-bis(oxy)-bis(oxomethylene)-bis[2-(m-tolylcarbamoyl)-benzoic acid] [BDF5]”, the IC50 in data set [1] (EMSA with DS24a; average ± SD from three runs; read-out: IC50, inhibition of HUEc DNA-binding) came to 7.5 ± 0.9 µM. The Solubility result in data set [2] was “limited solubility”.

On to `O=C(Oc1ccc(C2(c3ccc(OC(=O)c4ccc(C(=O)O)c(C(=O)O)c4)cc3)c3ccccc3-c3ccccc32)cc1)c1ccc(C(=O)O)c(C(=O)O)c1` [BDF4, 4,4'-[4,4'-(9H-fluorene-9,9-diyl)-bis(4,1-phenylene)]-bis(oxy)-bis(oxomethylene)diphthalic acid], for which the IC50 in data set [1] (read-out: IC50, inhibition of HUEc DNA-binding; EMSA with DS24a; average ± SD from three runs) amounted to 7.5 ± 1 µM.
